Experimental data from PubChem BioAssay AID1379 (National Center for Advancing Translational Sciences (NCATS), 2008).
Only a part is listed here, and it is no random draw. Some of these compounds have results that are not shown, active ones among them. Active and inactive are the calls of the source. The call rests on the fitted dose curve; in most records, active means well fitted inhibition curve with a large enough effect; inconclusive means small, poorly fitted or top-dose-only effect; inactive means flat fitted curve, though single readings scatter.

biological target: Luciferin 4-monooxygenase (Photuris pensylvanica) (UniProt Q27757); test: Counterscreen for Luciferase (Kinase-Glo TM) Inhibition; conditions: ATP luminescence, 8 min; at 38.3 µM (top of the series) unless noted; further: nearly all actives have a fitted effect of over 60% in size
Protocol: NCGC Assay Overview: NIH Molecular Libraries Screening Centers Network [MLSCN] NIH Chemical Genomics Center [NCGC] MLSCN Grant: None Luciferase (Kinase-Glo, Promega Corporation) was assayed for its ability to generate light using ATP and luciferin as substrates. The ATP concentration in the assay (10 uM) was within the linear range of enzyme activity for the assay conditions used.
NCGC Assay Protocol Summary: Four uL of substrate mix (final concentration, 50 mM imidazole pH 7.2, 50 mM KCl, 7 mM MgCl2, 10 uM ATP, 0.01% Tween 20, 0.05% BSA) was dispensed into white 1536 well plates. Twenty-three nL of compound was delivered by a pin tool and 2 uL of luciferase detection mix (Kinase-Glo, Promega)) was added. Following 8-minute incubation at ambient temperature, luminescence was measured by a ViewLux (Perkin Elmer) at 5 seconds exposure/plate.
On the % scale 0 is the no-effect control and ±100 the full control effect.

| Structure (SMILES) | activity change, negative = inhibition |
| --- | --- |
| CC(C)N1C(=O)CC2(CCN(CCOC(=O)C(O)(c3ccccc3)c3ccccc3)CC2)C1=O | inactive: 1.12% |
| C=CCN1CCN(CCOC(=O)C(O)(c2ccccc2)c2ccccc2)CC1 | inactive: -1.48% |
| CCN1CCCC(OC(=O)C2(O)c3ccccc3C=Cc3ccccc32)C1 (stereo unspecified) | inactive: -8.63% |
| CN(C)C1CCCC1OC(=O)C(O)(c1ccccc1)c1ccccc1 (stereo unspecified) | inactive: 4.09% |
| Cc1ccccc1C(=O)NCC1(N2CCCCC2)CCCCC1 | inactive: -0.483% |
| COc1cccc(C(=O)NCC2(N3CCCCC3)CCCCC2)c1 | inactive: -0.627% |
| CN(C)c1cccc(C(=O)NCC2(N(C)C)CCCCC2)c1 | inactive: -8.58% |
| CN1CCC[C@H](OC(=O)[C@](O)(c2ccccc2)C2CCCC2)C1 | inactive: -5.95% [at 7.66 µM] |
| CN1CC[C@H](OC(=O)[C@](O)(c2ccccc2)C2CCCC2)C1 | inactive: -5.73% [at 7.66 µM] |
| O=C(OC1CN2CCC1CC2)C(CO)(c1ccccc1)c1ccccc1 (stereo unspecified) | inactive: 0.415% |
| C=C(C)C#C[C@@](O)(C(=O)OC1CCN(C)CC1)c1ccccc1 | inactive: -0.787% [at 7.66 µM] |
